Yeast mating assay B: variants of the scFv Ab-14

Values reported by Li et al. 2023, doi:10.1038/s41467-023-39022-2 (FLAb copy).

Target: peptide PDVDLGDISGINAS, taken from heptad repeat 2 (HR2) of SARS-CoV-2 spike.

Parent: Ab-14, a human scFv built as VH, three GGGGS repeats, VL. Only the CDRs of the light chain vary.
VH: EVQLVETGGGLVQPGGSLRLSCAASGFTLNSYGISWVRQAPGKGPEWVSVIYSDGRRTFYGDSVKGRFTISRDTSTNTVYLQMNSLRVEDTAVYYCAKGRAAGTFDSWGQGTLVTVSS
VL: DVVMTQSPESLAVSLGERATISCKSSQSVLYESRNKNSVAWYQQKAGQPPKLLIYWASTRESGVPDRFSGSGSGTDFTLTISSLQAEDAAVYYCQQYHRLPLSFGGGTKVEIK

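Phage display of a naive human antibody library on the peptide gave the parent. This is the validation round: designs drawn from the data on random variants, tested in the same kind of assay. Their group label is 14L_Ctrl (Ctrl: baseline library sampled from a position-specific scoring matrix, with some repeated check sequences). The assay is AlphaSeq: two haploid yeast populations carry antibody and antigen on their surface. After mating in shaken culture at 30 °C for 16 h, diploids were selected and their barcode pairs sequenced. Scores were corrected for input abundance and mapped to Kd with protein pairs of known affinity run in the same pool. Mating was done six times.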

Each variant is given by its three light chain CDRs, as the data file delimits them; those of the parent are KSSQSVLYESRNKNSVA, WASTRES, QQYHRLPLS. The read-out is the apparent dissociation constant on a log10 scale (nM): the lower, the stronger. A pair that was not seen in that replicate is written "ND"; this usually means weak binding, but a binder can also be missed. The parent sequence was in this pool as ten entries: three were never detected, three once, and four in most replicates, with averages from 0.34 to 2.37. A sequence measured in both rounds can read differently, since the two assays cover different ranges. Three control strains display no target. For all light chain designs, 4% of the pairings with them gave a signal, with a median of 2.64 and one signal in twenty below 1.59, so weak values seen in few replicates may be background. Also given: how often the same scFv was detected with the empty control strains, with their mean in brackets. In the paper, a design with two or fewer of six values counts as a poor binder.

CDR-L1 | CDR-L2 | CDR-L3 | log10 Kd (nM) by replicate | signal with controls
KSSQSVLYESRNKNSGA | WASTREI | QQYHRLLLS | ND ND ND ND ND ND | 0/18
KFSDSVMYESRNKNSVA | WASTRES | QQYHRLPLS | 0.55 0.58 0.45 0.44 0.52 0.70 | 1/18 (2.02)
KSSQSELCEDRNTNSVA | QASQRES | QQYHRLPLS | 0.82 1.11 1.19 0.50 1.30 1.43 | 0/18
KSSQSVLYESNNKNSVA | AASTRYS | QQYHRLPLS | 0.82 0.83 0.57 0.71 0.75 0.90 | 2/18 (3.54)
KSTQSVLYHSRNKNSVA | DASTRES | QQMHRLTLS | 0.40 0.25 0.27 0.14 0.26 0.52 | 0/18
KSSQSELYESRNKNSVA | WASTRES | QQYQTLPLS | 3.16 1.51 1.34 2.21 2.26 1.62 | 0/18
KSSQSVLYESRNKNSVA | SASTRES | QQYQRIPLS | 0.55 0.52 1.03 0.68 0.64 0.45 | 0/18
KSSQSVLDESRNKNAIA | SASTRES | QTYHRLPLS | 1.90 0.97 0.87 0.54 0.53 0.55 | 0/18
KSSQSVMYESNNKNAVA | WAGTRES | QQYHRLPLS | 0.91 1.34 2.04 2.55 1.02 2.10 | 1/18 (2.72)
KSSQSVLYESMNKNSVA | WASTREH | QQYSRLPLS | ND 0.96 ND ND 1.45 0.42 | 0/18
KSSQSVEYESRNKNSLA | GASTRES | QQYHRLELS | ND ND ND ND ND ND | 0/18
KQSQSHLYLSLNKNSVA | QASTRES | QQYSRLPLS | 0.51 0.32 0.02 0.54 -0.16 0.39 | 0/18
KSSFSVLYESRNKNSVA | DASTRES | QQYHRLPLS | 0.06 0.02 -0.13 -0.11 0.07 0.07 | 1/18 (3.77)
KSSQSVLYESRNKNSVA | SASTRES | QDYHRLPLS | 0.14 -0.11 -0.07 -0.54 0.11 0.05 | 1/18 (1.68)
KSSQSVLYESRNANSVA | WDSTRES | QQYHRLPLS | ND 1.64 1.96 0.99 ND ND | 0/18
KSSQSDLGESRNKNSVA | WASTRES | QQYHRLPLS | ND 2.18 2.41 0.39 0.75 1.53 | 1/18 (1.15)
KSEQSVLYESRNKNSVA | WDSTRES | QQYHRLPLS | ND ND ND ND ND ND | 0/18
KSSQSVLYETRNKQSVA | YASTRES | QQYHCLPPS | ND ND ND ND ND ND | 0/18
KSSQSVLLESVNKNSVA | WASTRES | QQYHRAPLS | 1.66 1.90 ND ND ND 2.92 | 0/18
KSYQSVLAESRNKNSVA | WASTRES | QQYDRLPLS | 2.11 2.81 2.73 2.00 ND 2.76 | 1/18 (2.91)
KSSQSVLGESNNKNSVA | WASTRES | QQYQRLPLS | ND ND ND ND ND ND | 0/18
KNSQKVLYESRNKNSVA | WASTRES | QQYHRLPLD | ND ND ND ND ND ND | 0/18
KMSQSVLYESDNKNSVA | WASTRIS | QQYHRLPLS | 1.27 0.93 0.89 1.03 2.03 0.75 | 0/18
KSDQSVLYESRNKNSVA | EASTRES | QQYHRWPLS | ND ND ND ND ND 2.84 | 0/18
KSSQSVLYESRNKNSVA | WASERES | QQYHQLPLS | ND 1.46 0.55 2.01 0.78 1.08 | 1/18 (2.04)
KSSQSVLYESENKNSVA | KASTRES | QQYMRLPLS | 0.33 0.32 0.02 0.28 0.15 0.43 | 1/18 (2.59)
KSSQSVLYESRNKNSVA | WASTRES | QQYHRLPLQ | 0.91 0.62 0.46 0.81 1.20 1.32 | 0/18
KNSQSVLYESRNKNSVA | AASTREK | QQYHRLPLS | 0.53 0.81 0.61 0.23 0.46 0.60 | 0/18
KSSQSDLYESRNSNSVA | HASTREA | QQYHRLPLS | 0.44 1.08 0.26 0.79 0.85 0.20 | 0/18
KSNQSVLYESRNKNSVA | WRSTRES | QQYHRLTLS | ND ND ND ND ND ND | 1/18 (2.29)

The first 5 variants above that were never detected:

CDR-L1 | CDR-L2 | CDR-L3 | log10 Kd (nM) by replicate | signal with controls
KSSQSVLYESRNKNSGA | WASTREI | QQYHRLLLS | ND ND ND ND ND ND | 0/18
KSSQSVEYESRNKNSLA | GASTRES | QQYHRLELS | ND ND ND ND ND ND | 0/18
KSEQSVLYESRNKNSVA | WDSTRES | QQYHRLPLS | ND ND ND ND ND ND | 0/18
KSSQSVLYETRNKQSVA | YASTRES | QQYHCLPPS | ND ND ND ND ND ND | 0/18
KSSQSVLGESNNKNSVA | WASTRES | QQYQRLPLS | ND ND ND ND ND ND | 0/18